The source of these data is patent publication US20240024251A1, “POLYSACCHARIDE ENCAPSULATED OXYGEN NANOBUBBLES” (THE BOARD OF TRUSTEES OF THE UNIVERSITY OF ILLINOIS, priority 2020, published 2024).

This series relates to R-28 and ARPE-19 cell line. As to the kind of experiment: Excipient toxicity studies, cell viability (MTT). The note with it: R-28 and ARPE-19 cells, FIG. 6.

With “D-a-tocopherol polyethylene glycol 1000 succinate [TPGS]”, the “excipient concentration producing some toxic effect on cell viability” value was in the range of 0.04 to 0.045 mg.
